The entries are a selection whose mix differs from that of the whole data set. Calls of active or inactive are those of the source.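 How the source made its calls: active means mean inhibition above 46.68%, the untreated control wells mean plus 3 SD; inactive means the rest.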

Protein sequences, listed by entry. Tags and fused reporters are not part of them.
UniProt Q15788, whole entry: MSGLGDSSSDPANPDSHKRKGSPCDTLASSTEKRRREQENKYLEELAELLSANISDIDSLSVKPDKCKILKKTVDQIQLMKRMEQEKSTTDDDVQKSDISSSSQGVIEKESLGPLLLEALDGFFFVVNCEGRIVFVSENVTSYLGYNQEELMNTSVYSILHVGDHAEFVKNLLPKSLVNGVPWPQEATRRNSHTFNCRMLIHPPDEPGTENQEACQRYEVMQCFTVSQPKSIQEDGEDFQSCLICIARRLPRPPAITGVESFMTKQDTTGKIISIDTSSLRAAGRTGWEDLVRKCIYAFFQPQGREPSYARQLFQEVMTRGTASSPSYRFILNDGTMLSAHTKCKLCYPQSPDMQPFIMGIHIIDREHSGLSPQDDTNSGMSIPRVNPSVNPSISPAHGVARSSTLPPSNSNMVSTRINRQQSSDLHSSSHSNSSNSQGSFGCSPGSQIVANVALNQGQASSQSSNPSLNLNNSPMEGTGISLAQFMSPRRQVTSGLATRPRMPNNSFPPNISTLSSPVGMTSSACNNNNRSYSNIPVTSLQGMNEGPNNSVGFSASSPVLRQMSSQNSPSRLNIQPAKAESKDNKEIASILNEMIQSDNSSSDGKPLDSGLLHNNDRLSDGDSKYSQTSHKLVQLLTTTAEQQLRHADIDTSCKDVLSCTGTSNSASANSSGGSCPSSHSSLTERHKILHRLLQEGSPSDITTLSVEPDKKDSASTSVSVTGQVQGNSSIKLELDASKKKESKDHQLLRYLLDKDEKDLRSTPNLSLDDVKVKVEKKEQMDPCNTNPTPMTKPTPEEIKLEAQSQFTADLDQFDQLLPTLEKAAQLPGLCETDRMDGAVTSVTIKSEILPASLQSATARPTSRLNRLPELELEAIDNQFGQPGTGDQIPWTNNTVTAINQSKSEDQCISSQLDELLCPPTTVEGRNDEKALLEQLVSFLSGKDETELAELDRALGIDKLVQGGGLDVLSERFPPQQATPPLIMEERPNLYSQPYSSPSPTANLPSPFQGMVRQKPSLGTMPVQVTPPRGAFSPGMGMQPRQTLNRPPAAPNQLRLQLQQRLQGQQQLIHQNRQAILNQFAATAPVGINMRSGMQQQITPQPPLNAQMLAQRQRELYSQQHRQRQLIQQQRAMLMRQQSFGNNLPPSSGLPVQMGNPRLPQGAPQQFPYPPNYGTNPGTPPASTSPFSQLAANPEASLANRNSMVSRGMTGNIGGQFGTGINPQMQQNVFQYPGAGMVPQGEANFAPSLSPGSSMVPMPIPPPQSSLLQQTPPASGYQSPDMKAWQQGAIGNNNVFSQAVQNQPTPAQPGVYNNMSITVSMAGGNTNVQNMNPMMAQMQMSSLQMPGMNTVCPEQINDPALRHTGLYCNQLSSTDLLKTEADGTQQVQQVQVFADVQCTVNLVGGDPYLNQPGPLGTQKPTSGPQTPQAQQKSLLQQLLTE

The target in this experiment is Nuclear receptor coactivator 1 (Homo sapiens) (UniProt Q15788). The experiment in a line: SRC1 coactivator transcriptional activity inhibitors, confirmation, cell-based, luminescence, quadruplicate (AID 588820).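 Further: 0% = DMSO wells and 100% = gossypol 36 µM treated wells.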 The note with it: HEK293 GAL4-SRC1 luciferase reporter, at 3.6 µM, active compounds read high. In general terms: A reporter such as luciferase makes a cellular process visible.
By inhibition is commonly meant the drop in the measured response relative to a control, in per cent. Turning to `COc1cccc(C(c2nnnn2C2CCCCC2)N2CCC(n3c(=O)[nH]c4ccccc43)CC2)c1OC` (configuration not stated), the inhibition was inactive: -28.9%.

Take `O=c1[nH]c2ccccc2n1C1CCN(C(c2ccccc2)c2nnnn2C2CCCCC2)CC1` (configuration not stated): the inhibition is inactive: -21.3%.

The values above are taken from PubChem BioAssay AID588820 (The Scripps Research Institute Molecular Screening Center, 2011).
